Experimental data published in patent publication US6068838A, “Purified multimerase” (Baxter Aktiengesellschaft, priority 1996, dated 2000).

Biological target: T1, vWF-degrading protease (Homo sapiens, UniProt Q76LX8)
T1 sequence (Q76LX8 75-1427): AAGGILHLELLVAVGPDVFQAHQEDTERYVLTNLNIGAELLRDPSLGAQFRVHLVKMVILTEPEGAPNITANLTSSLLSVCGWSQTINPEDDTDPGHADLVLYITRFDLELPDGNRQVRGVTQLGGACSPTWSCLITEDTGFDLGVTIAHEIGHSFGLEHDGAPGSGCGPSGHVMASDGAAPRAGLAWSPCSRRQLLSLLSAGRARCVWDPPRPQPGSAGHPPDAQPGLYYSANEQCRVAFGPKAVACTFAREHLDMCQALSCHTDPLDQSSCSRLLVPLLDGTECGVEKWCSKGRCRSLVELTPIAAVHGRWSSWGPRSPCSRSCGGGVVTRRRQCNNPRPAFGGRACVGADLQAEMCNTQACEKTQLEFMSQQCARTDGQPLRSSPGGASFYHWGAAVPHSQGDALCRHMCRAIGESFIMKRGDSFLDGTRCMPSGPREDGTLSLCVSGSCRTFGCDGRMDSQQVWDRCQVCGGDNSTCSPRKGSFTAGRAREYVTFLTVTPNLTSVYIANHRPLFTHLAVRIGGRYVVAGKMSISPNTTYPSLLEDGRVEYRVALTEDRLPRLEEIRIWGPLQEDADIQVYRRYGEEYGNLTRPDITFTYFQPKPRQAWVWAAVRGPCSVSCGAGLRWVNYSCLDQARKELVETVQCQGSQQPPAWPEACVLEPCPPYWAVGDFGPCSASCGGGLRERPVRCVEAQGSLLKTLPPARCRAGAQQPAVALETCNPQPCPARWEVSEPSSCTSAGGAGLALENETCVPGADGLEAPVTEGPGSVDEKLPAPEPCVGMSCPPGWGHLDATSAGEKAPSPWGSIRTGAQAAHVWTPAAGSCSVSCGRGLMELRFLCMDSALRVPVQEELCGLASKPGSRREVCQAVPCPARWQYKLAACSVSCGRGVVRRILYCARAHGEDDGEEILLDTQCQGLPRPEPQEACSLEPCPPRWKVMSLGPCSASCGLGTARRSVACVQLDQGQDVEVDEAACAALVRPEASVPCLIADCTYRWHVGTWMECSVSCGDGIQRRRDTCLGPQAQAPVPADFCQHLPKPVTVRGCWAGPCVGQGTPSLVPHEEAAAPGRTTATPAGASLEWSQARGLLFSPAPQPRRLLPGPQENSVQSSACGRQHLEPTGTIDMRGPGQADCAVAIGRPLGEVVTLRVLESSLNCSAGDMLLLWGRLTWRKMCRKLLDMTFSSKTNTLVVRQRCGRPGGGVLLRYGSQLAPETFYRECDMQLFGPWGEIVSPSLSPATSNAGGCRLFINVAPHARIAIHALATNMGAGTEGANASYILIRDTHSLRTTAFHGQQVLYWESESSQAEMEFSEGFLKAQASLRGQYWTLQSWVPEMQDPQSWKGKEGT
Settings: 1 M urea, even at physiological salt concentrations, dialysis at 37° C.

## NC(N)=O [urea]
  effect on vWF degradation: increased markedly
